Test results: patent publication US8722732B2, “Oligomer-calcimimetic conjugates and related compounds” (Nektar Therapeutics, priority 2009, dated 2014)

Columns and labels:
[1] = rat, in vivo, 1 mg/kg
[2] = test system: plasma PTH (parathyroid hormone) levels; conditions: rat, in vivo

Substance | cinacalcet release after intravenous administration (in words) [1] | time for which release of cinacalcet continues following intravenous administration [1] [h] | T1/2 ([1]; iv) [h] | t1/2 compared to Compound (20) ([1]; iv) [fold] | release of cinacalcet (stable linker, in words) [2]
Four-arm-PEG20k-L-leucine-acyloxymethyl-carbamate-cinacalcet [Compound (21)] | relatively significant amounts of cinacalcet release | 8 to 12 | 4.67 | 2 | 
Four-arm-PEG20k-glycine-amide-cinacalcet [Compound (16)] | substantially no release of cinacalcet |  |  |  | diminished or no release of cinacalcet
mPEG10k-L-leucine-acyloxymethyl-carbamate-cinacalcet [Compound (20)] | relatively significant amounts of cinacalcet release | 8 to 12 | 2.32 |  | 
mPEG10k-glycine-amide-cinacalcet [Compound (15)] | substantially no release of cinacalcet |  |  |  | 
